Patent US20260132128A1, “COMPOUND FOR RECOVERING P53 MUTATION FUNCTION AND USE THEREOF” (SHENZHEN ZHONGGE BIOLOGICAL TECHNOLOGY CO., LTD., priority 2022, published 2026)

Tests used:
[1] = Liver microsome stability test, human (HLM); conditions: human liver microsomes, NADPH
Method: The 10 mM test compound/ketanserin (Energy Chemical, Cat. No. E020711) stock solution was diluted with acetonitrile to 0.5 mM compound/reference compound. The frozen 100 mM NADPH (MCE, Cat. No. HYF003/CS-4998) was diluted with phosphate buffer solution to a concentration of 6 mM; 20 mg/mL HLM (BioIVT, Cat. No. X008067) or MLM (BioIVT, Cat. No. M00501) was diluted with phosphate buffer solution to a concentration of 0.75 mg/ml, and added to a 96-round well plate, respectively, and shaken evenly on an oscillator at 600 rpm. The above oscillated samples were pipetted 3 times with an electric pipettor and dispensed into a new 96-well plate (containing NADPH group (n=2), NADPH-free group was added at 0 and 45 min (n=1)), and there were a total of 5 groups of 0, 5, 15, 30 and 45 min, respectively. […] The reaction was terminated by quickly adding glacial acetonitrile internal standard using an electric pipettor; after vortexing at 900 rpm for 10 seconds, heat sealing was performed, oscillation was performed on an oscillator for 10 minutes, centrifugation was performed at 4000 rpm for 50 minutes, the supernatant was collected and diluted with pure water, and the test compound and the reference compound were quantified by LC-MS/MS analysis.

[2] = Pharmacokinetic test in mice; conditions: mouse
Method: ICR male mice (15 to 35 g, 5 to 10 weeks old, Shanghai Xipuer-Bikai Experimental Animal Co., Ltd.) were selected as test animals in this study. The LC-MS/MS method was used to quantitatively determine drug concentrations in the plasma of mice at different time points after intravenous injection or oral gavage administration of the test compound to evaluate the pharmacokinetic characteristics of the compound in mice. The clear solution of the test compound was injected into ICR mice via the tail vein (without fasting, solvent: 40% hydroxypropyl-β-cyclodextrin) and administered to ICR mice by oral gavage (fasting for 10 to 14 hours, free drinking water, solvent: 0.2% hydroxypropyl cellulose, 0.5% Tween 80). For intravenous administration, blood was collected from the submandibular venous plexus at 0.033, 0.083, 0.25, 0.5, 1, 2, 4, 8, and 24 hours after administration, placed in an anticoagulant tube with EDTA-K2 (Jiangsu Kangjian Medical Supplies Co., Ltd.), mixed, and centrifuged at 2-8° C., 6800 g for 6 minutes to obtain plasma; for oral gavage administration, blood was collected from the submandibular venous plexus at 0.083, 0.25, 0.5, 1, 2, 4, 6, 8, and 24 hours after administration, placed in an anticoagulant tube with EDTA-K2 (Jiangsu Kangjian Medical Supplies Co., Ltd.), mixed, and centrifuged at 2-8° C., 6800 g for 6 minutes to obtain plasma. The blood drug concentration was determined by LC-MS/MS, and the relevant pharmacokinetic parameters were calculated by the non-compartmental linear logarithmic trapezoidal method using Phoenix WinNonlin™ Version 7.0 (Pharsight, USA) pharmacokinetic software.

p53 Y220C = p53 Y220C (Homo sapiens, UniProt P04637, Y220C); experiment: DNA binding test (HTRF): binding of P53Y220C protein to DNA; type: biochemical; conditions: multiple ratio of EC50 of the compound to the reference compound, DNA binding test
Method: In order to detect the ability of the aforementioned compounds to increase the binding of P53Y220C protein to DNA, the binding activity of p53 Y220C was measured by homogeneous time-resolved fluorescence (HTRF). Recombinant His-tagged p53 Y220C for HTRF measurement was expressed in bacteria E. coli. The recombinant protein was a truncated mutant containing only amino acids 94-312 of p53, and its sequence was […] […] VEGNLR VEYLDDRN TFRh[…] […]. The sense strand of the DNA double strand was 5′-[…]-3′, with a biotin tag at the 5′ end for activity assay, and the antisense strand was 5′-[…]-3′ 40 mL of assay buffer (20 mM Tris HCL, pH 7.5, 50 mM NaCl, 2 mM MgCl2, 0.02% Tween 20, 0.01% BSA, 1 mM DTT) was prepared. 10 mM compound was prepared and subjected to 3-fold dilution to obtain 10 dose gradient dilutions of the compound. 20 nL of the compound was added to a 384-well assay plate (PerkinElmer 6007299) using an Echo 655 Liquid Handler. P53Y220C protein was dissolved in assay buffer to reach a final concentration of 150 nM, and 5 μL thereof was added to each well, and incubated at room temperature for 5 min. DNA was dissolved in assay buffer to reach a final concentration of 150 nM, and 5 μL thereof was added to each well, and incubated at room temperature for 15 min. Anti 6HIS-XL665 (Cisbio 61HISXLB) was dissolved in assay buffer to reach a final concentration of 20 nM, and 5 μL thereof was added to each well. Streptavidin-Eu cryptate (Cisbio 610SAKLA) was dissolved in assay buffer to reach a final concentration of 0.625 nM, and 5 μL thereof was added to each well, and incubated at 27° C. for 1 hour. The plate was then read for signal values on an Envision (PerkinElmer 2105-0020) plate reader at 665 nm and 615 nm, respectively. GraphPad 9.0 was used to fit activation rate and compound concentration into a nonlinear regression curve (dose response-variable slope) to calculate EC50, and EC50 could be defined as the concentration required for the compound to achieve 50% effect. Activation rate={(A-C)/(C)}*100%, A=(signal value at 665 nm/signal value at 615 nm); C=average signal of negative control (wherein, negative control referred to 0.1% DMSO).

CNC(=O)c1ccc(NCC#Cc2cc3c(NC4CC[C@@H](N5CC6(COC6)C5)C[C@@H]4F)cccn3c2CC(F)(F)F)c(OC)c1 (single isomer, unassigned)
T1/2 (min) Human [1]: 65.3 min
CL ([2]; iv 2.5 mpk): 22 mL/min/kg
AUC ([2]; po 25 mpk, plasma): 17194 ng·h/mL
Cmax ([2]; po 25 mpk, plasma): 3638 ng/mL
Compound EC50 (nM)/Reference compound EC50 (nM) (p53 Y220C): A (A: EC50 of the compound≤EC50 of the reference compound)
